# Ab-14 light chain CDR variants: yeast mating affinities

The target is the same throughout: PDVDLGDISGINAS, from the HR2 region of SARS-CoV-2 spike.

The variants keep the heavy chain, the linker and the frameworks of Ab-14 (scFv order VH, a 15-residue (Gly4Ser)3 linker, VL).
VH: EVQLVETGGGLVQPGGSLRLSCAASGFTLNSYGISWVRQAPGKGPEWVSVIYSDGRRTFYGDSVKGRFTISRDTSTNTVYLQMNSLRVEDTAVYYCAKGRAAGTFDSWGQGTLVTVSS
VL: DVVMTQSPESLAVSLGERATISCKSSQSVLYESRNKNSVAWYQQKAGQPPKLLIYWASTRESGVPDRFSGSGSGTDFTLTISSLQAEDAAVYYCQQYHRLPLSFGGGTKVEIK

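The starting antibody came from a phage panning campaign against this peptide. AAYL50 was designed without a model: most single CDR substitutions and a random sample of double and triple ones. The assay is AlphaSeq: two haploid yeast populations carry antibody and antigen on their surface. Mating (16 h, 30 °C) was followed by selection of diploids and sequencing of their barcodes. The ratio of observed to expected reads was calibrated, replicate by replicate, on BCL2-family standards whose Kd was known from biolayer interferometry. There are three technical replicates.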

Positions count from residue 1 of the parent VL; K36T puts T in place of K.
This list gathers variants with a substitution at Q96 (VL, numbered from residue 1).
The Kd shown is the geometric mean over detected replicates; a lower Kd is a better binder.
An entry "no signal" has no value in the source: the pair was not observed among the diploids in any replicate. This suggests poor binding but is not conclusive.
Parent in this assay: reference entry 4.4 nM, copy in this library 48 nM.

The variant K36T+S62D+Q96K gave 13 µM (1 of 3 replicates). The variant T59S+E61R+Q96C showed 26 µM (1 of 3 replicates). The variant S58T+E61M+Q96C gave 17 nM (3 of 3 replicates). The variant Y31D+A57D+Q96G gave 2.2 nM (3 of 3 replicates). The variant N35S+Q96I+S103D gave 330 nM (1 of 3 replicates).

The variant T59M+Q96W+L100H gave 30 nM (3 of 3 replicates). The variant N37D+Q96D+P101V gave no signal (0 of 3 replicates). The variant K36G+Q95W+Q96P showed 51 nM (2 of 3 replicates). The variant W56H+Q96K+H98C gave 12 nM (3 of 3 replicates). The variant Q27T+A57L+Q96Y gave 500 µM (3 of 3 replicates).

For K36R+S58D+Q96D, the assay gave 18 nM (3 of 3 replicates). The variant Q27Y+N37H+Q96L showed 170 nM (3 of 3 replicates). The variant T59H+Q96R showed no signal (0 of 3 replicates). For S33P+A57I+Q96T, the assay gave 1.9 µM (1 of 3 replicates). With R60G+Q96L the result was 44 µM (1 of 3 replicates).

For Q27H+Q96Y, the assay gave 690 nM (3 of 3 replicates). The variant S38M+Q96H+H98W showed 150 nM (3 of 3 replicates). With Y31P+K36G+Q96L the result was 69 nM (3 of 3 replicates). The variant N35K+S38M+Q96N gave 1.4 µM (1 of 3 replicates). The variant K24R+S26V+Q96K showed 45 µM (1 of 3 replicates).

The variant S25K+R60V+Q96G gave no signal (0 of 3 replicates). The variant S62L+Q96F showed 4.7 µM (1 of 3 replicates). With S58A+Q96T+H98I the result was no signal (0 of 3 replicates). The variant S58H+Q96G+H98R showed 41 nM (3 of 3 replicates). With S26D+S58D+Q96H the result was 17 nM (3 of 3 replicates).

The variant K24R+Q96T+L100H showed 24 nM (3 of 3 replicates). The variant N37L+Q96W+H98N gave 4.2 µM (2 of 3 replicates). The variant K36N+Q95A+Q96T gave 2.5 µM (2 of 3 replicates). The variant S38F+Q95A+Q96A gave 190 µM (3 of 3 replicates). The variant S25M+V29T+Q96V gave 240 nM (3 of 3 replicates).

The variant S25C+S62H+Q96P gave 26 µM (1 of 3 replicates). The variant L30N+Q95E+Q96H showed 2.9 µM (1 of 3 replicates). For E32T+A57M+Q96R, the assay gave 390 nM (3 of 3 replicates). For R60D+Q96T+H98V, the assay gave no signal (0 of 3 replicates). For S26W+N35F+Q96G, the assay gave no signal (0 of 3 replicates).

For A40T+Q96T+L102V, the assay gave 810 nM (1 of 3 replicates).

The 6 strongest on average among those seen in every replicate, once more:

| changes | apparent Kd | detected |
|---|---|---|
| Y31D+A57D+Q96G | 2.2 nM | 3 of 3 |
| W56H+Q96K+H98C | 12 nM | 3 of 3 |
| S26D+S58D+Q96H | 17 nM | 3 of 3 |
| S58T+E61M+Q96C | 17 nM | 3 of 3 |
| K36R+S58D+Q96D | 18 nM | 3 of 3 |
| K24R+Q96T+L100H | 24 nM | 3 of 3 |

Empty control strains, which show no peptide, gave a signal in 18% of pairings with library AAYL50; the median was 15 µM and 95% of these signals were weaker than 970 nM. No background was subtracted.

From the AlphaSeq antibody data of Engelhart et al. 2022 (doi:10.1038/s41597-022-01779-4), copy in the FLAb collection.